Values of other authors, collected in US7071293B1, “Alpha helical peptides with broad spectrum antimicrobial activity that are insensitive to salt” (priority 1999, dated 2006).
Like-named read-outs stand apart in the source and are kept apart here.

System: Staphylococcus coagulase f
Design: MIC90: unit not given beside the values
Conditions: cited from earlier work; for Range: MIC range
[1] = Staphylococcus coagulase f (β-lactamase producer)

For `CC[C@H]1OC(=O)[C@H](C)[C@@H](O[C@H]2C[C@@](C)(OC)[C@@H](O)[C@H](C)O2)[C@H](C)[C@@H](O[C@@H]2O[C@H](C)C[C@H](N(C)C)[C@H]2O)[C@](C)(O)C[C@@H](C)C(=O)[C@H](C)[C@@H](O)[C@]1(C)O` [ERYTHROMYCIN, erythromycin], which Range (Staphylococcus coagulase f (non β-lactamase producer)) is on record?
The Range was 0.03–8.

What about the Range [1] of the same compound?
Its Range is 0.06–16.

What about the MIC90 [1] of the same compound?
Its MIC90 is 4.
